# From patent publication US20240216355A1, “PHARMACEUTICAL COMPOSITIONS FOR USE IN THE PREVENTION AND TREATMENT OF A DISEASE OR DISORDER CAUSED BY OR ASSOCIATED WITH ONE OR MORE PREMATURE TERMINATION CODONS” (Monte Rosa Therapeutics, Inc., priority 2021, published 2024)
# By UniProt entry, the sequences of proteins in these tests, tags left out.
# UniProt P15170, whole entry: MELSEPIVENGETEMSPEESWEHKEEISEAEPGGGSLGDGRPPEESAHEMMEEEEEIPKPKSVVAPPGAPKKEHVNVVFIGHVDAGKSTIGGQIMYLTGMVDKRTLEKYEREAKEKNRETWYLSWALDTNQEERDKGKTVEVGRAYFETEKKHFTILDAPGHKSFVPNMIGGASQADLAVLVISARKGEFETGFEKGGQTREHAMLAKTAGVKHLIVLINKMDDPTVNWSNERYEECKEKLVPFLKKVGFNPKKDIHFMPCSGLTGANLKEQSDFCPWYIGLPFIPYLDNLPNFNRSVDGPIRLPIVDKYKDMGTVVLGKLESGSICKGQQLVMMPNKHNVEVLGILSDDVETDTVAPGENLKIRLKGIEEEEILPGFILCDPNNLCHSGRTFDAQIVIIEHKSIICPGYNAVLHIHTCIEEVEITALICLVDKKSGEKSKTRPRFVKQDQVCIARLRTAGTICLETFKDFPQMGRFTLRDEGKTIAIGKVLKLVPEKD
# UniProt Q96SW2, whole entry: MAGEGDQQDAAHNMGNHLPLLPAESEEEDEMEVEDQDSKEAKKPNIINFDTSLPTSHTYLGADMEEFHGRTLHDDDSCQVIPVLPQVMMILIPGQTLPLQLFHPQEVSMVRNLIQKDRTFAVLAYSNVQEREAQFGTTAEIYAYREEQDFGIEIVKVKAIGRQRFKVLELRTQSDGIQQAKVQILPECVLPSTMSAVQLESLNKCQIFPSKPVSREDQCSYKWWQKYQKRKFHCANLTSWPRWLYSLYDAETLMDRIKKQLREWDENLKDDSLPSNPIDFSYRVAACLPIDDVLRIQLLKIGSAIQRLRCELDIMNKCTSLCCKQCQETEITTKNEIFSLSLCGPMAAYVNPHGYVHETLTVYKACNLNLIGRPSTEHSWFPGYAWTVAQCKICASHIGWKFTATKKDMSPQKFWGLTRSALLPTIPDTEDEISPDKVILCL
# UniProt Q16531, whole entry partner: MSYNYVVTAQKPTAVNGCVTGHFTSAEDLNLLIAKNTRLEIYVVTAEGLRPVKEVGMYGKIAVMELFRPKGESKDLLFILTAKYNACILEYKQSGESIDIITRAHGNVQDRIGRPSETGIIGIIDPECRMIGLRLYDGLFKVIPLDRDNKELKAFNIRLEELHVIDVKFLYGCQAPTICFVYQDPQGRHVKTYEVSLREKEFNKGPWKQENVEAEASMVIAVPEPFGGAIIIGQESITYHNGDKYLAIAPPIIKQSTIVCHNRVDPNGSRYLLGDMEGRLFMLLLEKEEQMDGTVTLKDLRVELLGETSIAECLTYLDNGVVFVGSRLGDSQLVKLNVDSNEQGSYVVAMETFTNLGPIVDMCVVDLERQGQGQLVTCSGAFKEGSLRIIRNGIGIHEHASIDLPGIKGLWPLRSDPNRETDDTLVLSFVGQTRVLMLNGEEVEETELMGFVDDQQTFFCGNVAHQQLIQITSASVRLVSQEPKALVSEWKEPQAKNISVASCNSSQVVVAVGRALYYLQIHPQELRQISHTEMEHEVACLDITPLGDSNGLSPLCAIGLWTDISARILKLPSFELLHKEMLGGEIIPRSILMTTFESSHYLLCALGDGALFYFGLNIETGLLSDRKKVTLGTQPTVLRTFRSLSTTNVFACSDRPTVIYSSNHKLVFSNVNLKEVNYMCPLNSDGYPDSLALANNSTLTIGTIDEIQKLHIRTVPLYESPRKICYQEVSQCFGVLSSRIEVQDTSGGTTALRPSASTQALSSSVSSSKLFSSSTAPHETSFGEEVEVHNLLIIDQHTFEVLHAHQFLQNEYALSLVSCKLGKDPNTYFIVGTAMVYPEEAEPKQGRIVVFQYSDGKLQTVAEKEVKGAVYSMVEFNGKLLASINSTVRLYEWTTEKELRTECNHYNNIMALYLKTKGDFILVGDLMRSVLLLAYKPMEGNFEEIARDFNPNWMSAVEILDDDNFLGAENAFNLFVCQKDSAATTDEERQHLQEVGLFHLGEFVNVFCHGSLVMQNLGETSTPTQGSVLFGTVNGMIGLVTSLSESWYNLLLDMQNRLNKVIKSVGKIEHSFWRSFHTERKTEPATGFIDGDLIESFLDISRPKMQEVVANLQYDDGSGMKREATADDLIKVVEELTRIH
# Biological target: GSPT1 (Homo sapiens, UniProt P15170+Q96SW2)
# Experiment: GSPT1 degradation immunofluorescence assay in CAL-51 cells
# Settings: read-out: Activity for GSPT1 degradation (DC50 code), 6 hours treatment, compounds 1 to 165
row,DC50 [nM],SMILES
1,> 300,CC(C)(C)c1ccc(NC(=O)NCc2ccc3c(c2)C(=O)N(C2CCC(=O)NC2=O)C3)cc1 (stereo not shown)
2,< 100,CC(C)(C)c1ccc(NC(=O)NCc2ccc3c(c2)C(=O)N(C2CCC(=O)NC2=O)C3)cn1 (stereo not shown)
3,> 300,O=C1CCC(N2Cc3ccc(CNC(=O)Nc4cc(OC(F)(F)F)ccn4)cc3C2=O)C(=O)N1 (stereo not shown)

# Second part, the compound before the results:
row,SMILES,DC50 [nM]
1,O=C1CCC(N2Cc3ccc(CNC(=O)Nc4cc(F)cc(OC(F)(F)F)c4)cc3C2=O)C(=O)N1 (stereo not shown),> 300
2,CN1CCC(Oc2cc(Cl)cc(NC(=O)NCc3ccc4c(c3)C(=O)N(C3CCC(=O)NC3=O)C4)c2)C1 (stereo not shown),> 300
3,Cc1c(Cl)cc(NC(=O)NCc2ccc3c(c2)C(=O)N(C2CCC(=O)NC2=O)C3)cc1C12CC1CN(C)C2 (stereo not shown),100 to 300
4,CN1CCC(COc2cc(Cl)cc(NC(=O)NCc3ccc4c(c3)C(=O)N(C3CCC(=O)NC3=O)C4)c2)C1 (stereo not shown),> 300
